{"source": "patent US9388151B2", "about": "“Methods for producing 5-(halomethyl) furfural” (MICROMIDAS, INC., priority 2012, dated 2016)", "description": "The amount of solvent and CMF used are detailed in Table 1.\nOnce the vials were filled and sealed, each vial was held at the temperatures listed in Table 1 above for 20-30 minutes, at which time a sample was taken and analyzed by HPLC.\nAn aliquot was analyzed by HPLC. The following HPLC protocol was used. The column was an Agilent Technologies RX-Sil silica column; 4.6×100 mm packed with 1.8 micron silica beads. Column temperature was maintained at 50° C. Injection volume was 1.0 microliter. Mobile phase composition was 80% hexane and 20% tetrahydrofuran flowing at 1.0 mL/min.", "data": [{"smiles": "Cc1ccccc1", "note": "[Toluene]", "values": [{"measurement": "CMF saturation concentration at specified temperature", "result": 316, "unit": "mg/mL"}]}]}
